Molecular target: T1, GABAA receptor α1β3γ2s (α1) (Homo sapiens, UniProt P14867+P18507+P28472)
T1 construct: Human GABAA receptor alpha 1 subunit amino acid; Human GABAA receptor beta 3 variant 1 subunit amino acid; Human GABAA receptor gamma 2 variant 1 (short) subunit amino acid; expressed in transfected cells
Assay: Membrane potential assay, CHO cell line expressing GABAA α1β3γ2s
Format: cell-based

Sequences of proteins named here, by UniProt entry; tags and fusion partners are left off. Residues count along the entry.
UniProt P14867, 28-456: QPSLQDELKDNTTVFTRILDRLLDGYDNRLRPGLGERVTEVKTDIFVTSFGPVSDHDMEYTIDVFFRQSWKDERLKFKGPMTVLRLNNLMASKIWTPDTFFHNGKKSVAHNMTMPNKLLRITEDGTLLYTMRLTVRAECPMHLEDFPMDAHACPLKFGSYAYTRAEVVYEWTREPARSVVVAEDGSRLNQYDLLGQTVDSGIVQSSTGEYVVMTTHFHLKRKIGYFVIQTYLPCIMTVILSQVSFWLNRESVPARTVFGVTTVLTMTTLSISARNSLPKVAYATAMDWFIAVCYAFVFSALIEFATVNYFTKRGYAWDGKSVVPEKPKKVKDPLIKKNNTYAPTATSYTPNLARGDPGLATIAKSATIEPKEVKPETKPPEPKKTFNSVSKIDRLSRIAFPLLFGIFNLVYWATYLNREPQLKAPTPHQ
UniProt P18507, 40-467 isoform P18507-1 limits assumed: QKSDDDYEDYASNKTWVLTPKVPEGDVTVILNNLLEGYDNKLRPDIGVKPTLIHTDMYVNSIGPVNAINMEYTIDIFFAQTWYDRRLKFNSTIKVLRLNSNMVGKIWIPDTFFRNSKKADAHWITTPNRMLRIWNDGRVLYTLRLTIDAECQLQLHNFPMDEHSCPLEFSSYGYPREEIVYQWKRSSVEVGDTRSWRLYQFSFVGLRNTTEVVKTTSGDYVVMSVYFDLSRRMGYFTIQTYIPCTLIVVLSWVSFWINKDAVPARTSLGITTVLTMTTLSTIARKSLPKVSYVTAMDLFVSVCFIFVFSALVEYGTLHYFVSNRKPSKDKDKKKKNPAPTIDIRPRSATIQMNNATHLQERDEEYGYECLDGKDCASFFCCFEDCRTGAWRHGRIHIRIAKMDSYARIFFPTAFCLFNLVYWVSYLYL
UniProt P28472, 26-473: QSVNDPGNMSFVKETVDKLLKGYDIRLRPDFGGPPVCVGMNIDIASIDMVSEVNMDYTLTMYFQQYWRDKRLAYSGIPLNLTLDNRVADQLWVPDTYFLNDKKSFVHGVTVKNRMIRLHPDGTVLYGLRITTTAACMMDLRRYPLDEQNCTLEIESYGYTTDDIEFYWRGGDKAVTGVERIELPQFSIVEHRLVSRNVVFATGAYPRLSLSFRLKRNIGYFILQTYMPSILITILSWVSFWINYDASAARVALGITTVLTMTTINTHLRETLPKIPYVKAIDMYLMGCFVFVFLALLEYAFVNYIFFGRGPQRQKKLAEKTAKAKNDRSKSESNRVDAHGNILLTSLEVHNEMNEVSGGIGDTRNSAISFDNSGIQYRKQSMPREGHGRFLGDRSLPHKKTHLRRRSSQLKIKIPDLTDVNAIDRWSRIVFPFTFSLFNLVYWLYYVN

Question: For `OCCN(CCO)c1nc(N2CCCCC2)c2nc(N(CCO)CCO)nc(N3CCCCC3)c2n1` [Dipyridamole], which EC50 is on record?
Answer: Its EC50 is 7.16 µM.
